{"source": "paper PMC6424904", "about": "“The Utility of Efavirenz-based Prophylaxis Against HIV Infection. A Systems Pharmacological Analysis” (Frontiers in Pharmacology, 2019)", "origin": "cited, not measured here", "settings": "ref [6–8]; cited from earlier work", "data": [{"smiles": "O=C1Nc2ccc(Cl)cc2[C@@](C#CC2CC2)(C(F)(F)F)O1", "note": "[efavirenz]", "values": [{"measurement": "ratio between total EFV concentrations in semen and plasma, reported values", "result": "3-9%"}]}]}
